The source of these data is US8969294B2 (Istituto di Recerche di Biologia Molecolare P. Angeletti …, priority 2008, dated 2015).

Protein sequences, listed by entry. Tags and fused reporters are not part of them. Residues count along the entry.
UniProt P43220, 24-463, species assumed: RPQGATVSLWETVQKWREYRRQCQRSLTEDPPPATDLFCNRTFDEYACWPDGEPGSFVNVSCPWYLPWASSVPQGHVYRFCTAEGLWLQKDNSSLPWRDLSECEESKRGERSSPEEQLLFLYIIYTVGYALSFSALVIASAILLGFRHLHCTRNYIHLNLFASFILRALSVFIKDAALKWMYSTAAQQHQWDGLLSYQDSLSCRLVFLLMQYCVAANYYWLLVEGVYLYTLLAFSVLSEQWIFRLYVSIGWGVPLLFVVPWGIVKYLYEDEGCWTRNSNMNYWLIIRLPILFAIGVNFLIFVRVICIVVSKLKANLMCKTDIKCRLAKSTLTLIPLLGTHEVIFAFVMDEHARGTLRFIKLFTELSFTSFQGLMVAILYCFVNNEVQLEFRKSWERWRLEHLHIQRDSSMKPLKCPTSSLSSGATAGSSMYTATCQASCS
UniProt P47871, 26-477: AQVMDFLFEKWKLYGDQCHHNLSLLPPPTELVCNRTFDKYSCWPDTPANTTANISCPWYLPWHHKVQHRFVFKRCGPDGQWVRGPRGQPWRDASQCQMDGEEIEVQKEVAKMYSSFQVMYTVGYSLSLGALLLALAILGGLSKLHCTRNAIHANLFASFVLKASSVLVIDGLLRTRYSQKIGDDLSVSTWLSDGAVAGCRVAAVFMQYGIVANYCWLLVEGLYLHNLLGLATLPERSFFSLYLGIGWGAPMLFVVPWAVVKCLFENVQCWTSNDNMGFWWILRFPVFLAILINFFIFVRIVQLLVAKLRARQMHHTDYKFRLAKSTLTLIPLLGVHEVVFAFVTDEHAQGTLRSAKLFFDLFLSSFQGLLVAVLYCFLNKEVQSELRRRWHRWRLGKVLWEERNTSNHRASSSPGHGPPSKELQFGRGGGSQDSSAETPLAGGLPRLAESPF

One test has as its target GLP-1 receptor (Homo sapiens, UniProt P43220). Description: Functional assay, cAMP synthesis: luciferase reporter in HEK293 cells co-transfected with GLP-1 receptor. A general note: Reporter assays use an easily measured gene product as a stand-in for the process of interest.
The next test has as its target glucagon receptor (Homo sapiens, UniProt P47871). Description: Functional assay, cAMP synthesis: luciferase reporter in HEK293 cells co-transfected with glucagon receptor.

`CCCCCCCCCCCCCCCC(=O)NCCCC[C@H](NC(=O)[C@H](CC(=O)O)NC(=O)[C@H](CO)NC(=O)[C@@H](NC(=O)[C@H](Cc1ccccc1)NC(=O)[C@@H](NC(=O)CNC(=O)[C@H](CCC(N)=O)NC(=O)[C@H](CO)NC(=O)C(C)(C)c1c[nH]cn1)[C@@H](C)O)[C@@H](C)O)C(=O)N[C@@H](CO)C(=O)N[C@@H](CCCCN)C(=O)N[C@@H](Cc1ccc(O)cc1)C(=O)N[C@@H](CC(C)C)C(=O)N[C@@H](CC(=O)O)C(=O)N[C@H]1CCC(=O)NCCCC[C@@H](C(=O)N[C@@H](CC(=O)O)C(=O)N[C@@H](Cc2ccccc2)C(=O)N[C@H](C(=O)N[C@@H](CCC(N)=O)C(=O)N[C@@H](Cc2c[nH]c3ccccc23)C(=O)N[C@@H](CC(C)C)C(=O)N[C@@H](CCSC)C(=O)N[C@@H](CC(N)=O)C(=O)N[C@H](C(N)=O)[C@@H](C)O)C(C)C)NC(=O)[C@H](C)NC(=O)[C@H](CCCNC(=N)N)NC(=O)[C@H](CCCNC(=N)N)NC1=O` [DMIA1, K10(C16), [E16/K20]-Gluc Amide]: on GLP-1 receptor, a half-maximal response (EC50) required 15 pM.

As for `CCCCCCCCCCCCCCCC(=O)N[C@@H](CCC(=O)NCCCC[C@H](NC(=O)[C@H](CC(=O)O)NC(=O)[C@H](CO)NC(=O)[C@@H](NC(=O)[C@H](Cc1ccccc1)NC(=O)[C@@H](NC(=O)CNC(=O)[C@H](CCC(N)=O)NC(=O)[C@H](CO)NC(=O)C(C)(C)c1c[nH]cn1)[C@@H](C)O)[C@@H](C)O)C(=O)N[C@@H](CO)C(=O)N[C@@H](CCCCN)C(=O)N[C@@H](Cc1ccc(O)cc1)C(=O)N[C@@H](CC(C)C)C(=O)N[C@@H](CC(=O)O)C(=O)N[C@H]1CCC(=O)NCCCC[C@@H](C(=O)N[C@@H](CC(=O)O)C(=O)N[C@@H](Cc2ccccc2)C(=O)N[C@H](C(=O)N[C@@H](CCC(N)=O)C(=O)N[C@@H](Cc2c[nH]c3ccccc23)C(=O)N[C@@H](CC(C)C)C(=O)N[C@@H](CCSC)C(=O)N[C@@H](CC(N)=O)C(=O)N[C@H](C(N)=O)[C@@H](C)O)C(C)C)NC(=O)[C@H](C)NC(=O)[C@H](CCCNC(=N)N)NC(=O)[C@H](CCCNC(=N)N)NC1=O)C(=O)O` [compound 651], the EC50 (in general, the concentration that produces a half-maximal response) at glucagon receptor worked out at 19 pM; at GLP-1 receptor, 6 pM.

The compound `CCCCCCCCCCCCCCCC(=O)N[C@@H](CCC(=O)N[C@@H](CCC(=O)NCCCC[C@H](NC(=O)[C@H](CC(=O)O)NC(=O)[C@H](CO)NC(=O)[C@@H](NC(=O)[C@H](Cc1ccccc1)NC(=O)[C@@H](NC(=O)CNC(=O)[C@H](CCC(N)=O)NC(=O)[C@H](CO)NC(=O)C(C)(C)c1c[nH]cn1)[C@@H](C)O)[C@@H](C)O)C(=O)N[C@@H](CO)C(=O)N[C@@H](CCCCN)C(=O)N[C@@H](Cc1ccc(O)cc1)C(=O)N[C@@H](CC(C)C)C(=O)N[C@@H](CC(=O)O)C(=O)N[C@H]1CCC(=O)NCCCC[C@@H](C(=O)N[C@@H](CC(=O)O)C(=O)N[C@@H](Cc2ccccc2)C(=O)N[C@H](C(=O)N[C@@H](CCC(N)=O)C(=O)N[C@@H](Cc2c[nH]c3ccccc23)C(=O)N[C@@H](CC(C)C)C(=O)N[C@@H](CCSC)C(=O)N[C@@H](CC(N)=O)C(=O)N[C@H](C(N)=O)[C@@H](C)O)C(C)C)NC(=O)[C@H](C)NC(=O)[C@H](CCCNC(=N)N)NC(=O)[C@H](CCCNC(=N)N)NC1=O)C(=O)O)C(=O)O` [compound 652] showed an EC50 on GLP-1 receptor of 4 pM.

With `CCCCCCCCCCCCCCCC(=O)N[C@@H](CCC(=O)NCCCC[C@H](NC(=O)[C@H](CC(N)=O)NC(=O)[C@H](CCSC)NC(=O)[C@H](CC(C)C)NC(=O)[C@H](Cc1c[nH]c2ccccc12)NC(=O)[C@H](CCC(N)=O)NC(=O)[C@@H](NC(=O)[C@H](Cc1ccccc1)NC(=O)[C@H](CC(=O)O)NC(=O)[C@@H]1CCCCNC(=O)CC[C@H](NC(=O)[C@H](CC(=O)O)NC(=O)[C@H](CC(C)C)NC(=O)[C@H](Cc2ccc(O)cc2)NC(=O)[C@H](CCCCN)NC(=O)[C@H](CO)NC(=O)[C@H](Cc2ccc(O)cc2)NC(=O)[C@H](CC(=O)O)NC(=O)[C@H](CO)NC(=O)[C@@H](NC(=O)[C@H](Cc2ccccc2)NC(=O)[C@@H](NC(=O)CNC(=O)[C@H](CCC(N)=O)NC(=O)[C@H](CO)NC(=O)C(C)(C)c2c[nH]cn2)[C@@H](C)O)[C@@H](C)O)C(=O)N[C@@H](CCCNC(=N)N)C(=O)N[C@@H](CCCNC(=N)N)C(=O)N[C@@H](C)C(=O)N1)C(C)C)C(N)=O)C(=O)O` [compound 653], the EC50 at glucagon receptor is 107 pM; on GLP-1 receptor, 75 pM.

Regarding `CCCCCCCCCCCCCCCC(=O)N[C@@H](CCC(=O)N[C@@H](CCC(=O)NCCCC[C@H](NC(=O)[C@H](CC(N)=O)NC(=O)[C@H](CCSC)NC(=O)[C@H](CC(C)C)NC(=O)[C@H](Cc1c[nH]c2ccccc12)NC(=O)[C@H](CCC(N)=O)NC(=O)[C@@H](NC(=O)[C@H](Cc1ccccc1)NC(=O)[C@H](CC(=O)O)NC(=O)[C@@H]1CCCCNC(=O)CC[C@H](NC(=O)[C@H](CC(=O)O)NC(=O)[C@H](CC(C)C)NC(=O)[C@H](Cc2ccc(O)cc2)NC(=O)[C@H](CCCCN)NC(=O)[C@H](CO)NC(=O)[C@H](Cc2ccc(O)cc2)NC(=O)[C@H](CC(=O)O)NC(=O)[C@H](CO)NC(=O)[C@@H](NC(=O)[C@H](Cc2ccccc2)NC(=O)[C@@H](NC(=O)CNC(=O)[C@H](CCC(N)=O)NC(=O)[C@H](CO)NC(=O)C(C)(C)c2c[nH]cn2)[C@@H](C)O)[C@@H](C)O)C(=O)N[C@@H](CCCNC(=N)N)C(=O)N[C@@H](CCCNC(=N)N)C(=O)N[C@@H](C)C(=O)N1)C(C)C)C(N)=O)C(=O)O)C(=O)O` [compound 654], the EC50 at glucagon receptor was found to be 25 pM; at GLP-1 receptor, 70 pM.
